Measured values as given in ChEMBL document CHEMBL3272041, “Quantitative correlations between albumin binding constants and chromatographic Rm values of phenothiazine derivatives” (J Med Chem, 1977).

Sequences of proteins named here, by UniProt entry; tags and fusion partners are left off.
UniProt P02769, whole entry: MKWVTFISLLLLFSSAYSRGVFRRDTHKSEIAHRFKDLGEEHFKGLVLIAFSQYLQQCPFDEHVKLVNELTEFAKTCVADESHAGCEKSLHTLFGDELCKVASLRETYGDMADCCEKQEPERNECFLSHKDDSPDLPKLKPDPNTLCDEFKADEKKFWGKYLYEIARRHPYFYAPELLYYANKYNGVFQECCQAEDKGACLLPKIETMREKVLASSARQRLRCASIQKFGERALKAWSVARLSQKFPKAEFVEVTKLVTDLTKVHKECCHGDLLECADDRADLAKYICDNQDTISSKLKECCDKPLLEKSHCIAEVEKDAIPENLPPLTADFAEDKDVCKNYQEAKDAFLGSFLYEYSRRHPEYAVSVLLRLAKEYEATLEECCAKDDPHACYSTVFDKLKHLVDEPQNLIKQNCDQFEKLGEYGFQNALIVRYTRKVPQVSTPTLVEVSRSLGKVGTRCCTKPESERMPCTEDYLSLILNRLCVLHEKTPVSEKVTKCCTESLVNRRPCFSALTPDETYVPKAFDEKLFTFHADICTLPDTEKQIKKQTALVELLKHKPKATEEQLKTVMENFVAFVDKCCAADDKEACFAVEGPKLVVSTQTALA

Legend:
[1] = Octanol-water partition coefficient, log P of the compound; format: physicochemical
[2] = molecular target: T1, Albumin (Bos taurus, UniProt P02769); assay: Binding affinity to bovine serum albumin assessed as intrinsic binding constant; format: ADME; conditions: cattle, isolated protein
[3] = molecular target: T1, Albumin; assay: Binding affinity to bovine serum albumin; format: ADME; conditions: cattle, isolated protein
[4] = molecular target: T1, Albumin; assay: Binding affinity to bovine serum albumin by circular dichroic probe technique; format: ADME; conditions: cattle, isolated protein
Summary of the method: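 Displacement of sulfaethidole from its primary BSA site, followed by circular dichroism. Solutions were in 0.054 M sodium phosphate, pH 7.44 (25 °C), isotonic with NaCl. Reagent concentrations were 1.45 × 10−5 and 2.11 × 10−5 M. Spectra were scanned from 420 to 265 nm in 10-mm cells, with ellipticity read at 280–286 nm, corrected for drug effect on BSA. Apparent K came from the Klotz equation (n = 1) and was extrapolated to zero drug concentration.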

Structure (SMILES)	logP [1]	log K [2]	log K [3]	logKa [4]
CN(C)CCCN1c2ccccc2Sc2ccc(Cl)cc21 [CHLORPROMAZINE]	5.35	3.79	4.32	
OCCN1CCN(CCCN2c3ccccc3Sc3ccc(C(F)(F)F)cc32)CC1 [FLUPHENAZINE]				4.41
CN1CCN(CCCN2c3ccccc3Sc3ccc(C(F)(F)F)cc32)CC1 [TRIFLUOPERAZINE]		3.8		
